Values joined by “and” are separate entries in the source; they are usually repeats but may differ in a detail not shown here. Identical values can stand only once.
Tests used:
Experiment in all cases: Transporter inhibition using transfected HEK293 cells
[1] = target: T1, MATE1 (Homo sapiens, UniProt Q96FL8); details: uptake of [14C]-metformin by MATE1, single replicates
T1 sequence (Q96FL8 1-570): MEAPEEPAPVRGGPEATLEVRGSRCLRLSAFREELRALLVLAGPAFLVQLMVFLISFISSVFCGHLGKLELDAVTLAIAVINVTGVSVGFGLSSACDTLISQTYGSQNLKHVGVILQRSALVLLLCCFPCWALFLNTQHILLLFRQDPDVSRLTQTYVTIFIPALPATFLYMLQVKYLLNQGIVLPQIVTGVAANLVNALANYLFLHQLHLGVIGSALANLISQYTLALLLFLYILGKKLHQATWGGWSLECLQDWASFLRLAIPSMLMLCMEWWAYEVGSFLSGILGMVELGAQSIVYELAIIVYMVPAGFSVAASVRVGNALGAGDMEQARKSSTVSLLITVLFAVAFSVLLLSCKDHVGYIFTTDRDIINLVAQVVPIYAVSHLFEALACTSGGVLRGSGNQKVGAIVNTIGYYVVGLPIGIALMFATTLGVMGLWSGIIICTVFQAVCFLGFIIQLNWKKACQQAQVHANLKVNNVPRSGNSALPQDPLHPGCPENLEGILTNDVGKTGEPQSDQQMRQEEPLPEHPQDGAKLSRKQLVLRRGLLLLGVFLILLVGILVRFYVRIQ

[2] = target: T2, OAT3 (Homo sapiens, UniProt Q8TCC7); details: uptake of [3H]-ES by OAT3
T2 sequence (Q8TCC7 1-542): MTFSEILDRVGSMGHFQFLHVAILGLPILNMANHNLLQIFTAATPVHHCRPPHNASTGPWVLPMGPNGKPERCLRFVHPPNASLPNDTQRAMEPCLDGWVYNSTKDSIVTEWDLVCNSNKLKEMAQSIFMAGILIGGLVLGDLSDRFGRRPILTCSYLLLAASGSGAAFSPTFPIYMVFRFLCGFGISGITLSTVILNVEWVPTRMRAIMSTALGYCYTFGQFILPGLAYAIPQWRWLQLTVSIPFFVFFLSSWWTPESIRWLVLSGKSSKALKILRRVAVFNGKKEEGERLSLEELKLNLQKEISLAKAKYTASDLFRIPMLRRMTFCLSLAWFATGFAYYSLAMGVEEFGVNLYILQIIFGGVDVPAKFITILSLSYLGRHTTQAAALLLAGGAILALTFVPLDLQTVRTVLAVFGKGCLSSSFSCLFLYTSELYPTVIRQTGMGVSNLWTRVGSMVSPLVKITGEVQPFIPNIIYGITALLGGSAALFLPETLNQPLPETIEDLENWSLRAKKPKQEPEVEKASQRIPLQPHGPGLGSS

[3] = target: T3, OCT2 (Homo sapiens, UniProt O15244); details: uptake of [14C]-metformin by OCT2, single replicates
T3 sequence (O15244 1-555): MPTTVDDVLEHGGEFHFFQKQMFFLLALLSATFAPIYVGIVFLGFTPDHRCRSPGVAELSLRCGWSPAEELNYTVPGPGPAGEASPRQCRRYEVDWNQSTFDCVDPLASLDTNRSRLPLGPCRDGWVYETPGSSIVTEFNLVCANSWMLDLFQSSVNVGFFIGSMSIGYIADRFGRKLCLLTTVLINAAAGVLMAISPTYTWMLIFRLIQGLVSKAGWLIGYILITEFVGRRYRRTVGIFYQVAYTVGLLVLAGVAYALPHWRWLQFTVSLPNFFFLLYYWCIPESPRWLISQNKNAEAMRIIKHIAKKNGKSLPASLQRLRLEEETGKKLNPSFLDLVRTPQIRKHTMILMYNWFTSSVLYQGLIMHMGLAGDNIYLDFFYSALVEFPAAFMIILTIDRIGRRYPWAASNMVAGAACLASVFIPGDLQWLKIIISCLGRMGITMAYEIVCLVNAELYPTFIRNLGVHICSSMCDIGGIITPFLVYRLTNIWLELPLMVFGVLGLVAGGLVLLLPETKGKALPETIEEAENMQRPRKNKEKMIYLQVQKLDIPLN

[4] = target: T4, OAT1 (Homo sapiens, UniProt Q4U2R8); details: uptake of [3H]-PAH by OAT1
T4 sequence (Q4U2R8 1-563): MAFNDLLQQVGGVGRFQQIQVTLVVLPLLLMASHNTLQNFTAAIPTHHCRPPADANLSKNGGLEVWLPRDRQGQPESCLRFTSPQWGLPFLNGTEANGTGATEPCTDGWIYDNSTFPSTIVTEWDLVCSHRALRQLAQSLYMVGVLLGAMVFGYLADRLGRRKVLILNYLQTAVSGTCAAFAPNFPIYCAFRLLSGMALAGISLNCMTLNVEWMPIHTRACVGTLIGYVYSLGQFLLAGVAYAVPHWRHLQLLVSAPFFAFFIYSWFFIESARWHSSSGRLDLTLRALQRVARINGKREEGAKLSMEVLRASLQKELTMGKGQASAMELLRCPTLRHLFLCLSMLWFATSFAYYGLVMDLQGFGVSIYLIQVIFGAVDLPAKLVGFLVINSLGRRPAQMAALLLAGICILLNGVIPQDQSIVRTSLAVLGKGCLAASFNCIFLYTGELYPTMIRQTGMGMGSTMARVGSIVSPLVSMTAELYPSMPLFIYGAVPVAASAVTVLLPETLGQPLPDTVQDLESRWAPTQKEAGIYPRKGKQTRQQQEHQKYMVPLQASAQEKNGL

[5] = inhibitor concentration 0.0732 uM
[6] = inhibitor concentration 0.2930 uM
[7] = inhibitor concentration 1.1719 uM
[8] = inhibitor concentration 4.6875 uM
[9] = inhibitor concentration 18.7500 uM
[10] = inhibitor concentration 300.0000 uM

SMILES | % Uptake Activity [1, 5] | % Uptake Activity [1, 6] | % Uptake Activity [1, 7] | % Uptake Activity [1, 8] | % Uptake Activity [1, 9] | % Uptake Activity [1, 10] | % Uptake Activity ([2]; inhibitor 0.0732 uM) | CPM ([2]; inhibitor 0.0732 uM) | CPM ([2]; inhibitor 0.2930 uM) | % Uptake Activity ([2]; inhibitor 1.1719 uM) | CPM ([2]; inhibitor 1.1719 uM) | % Uptake Activity ([2]; inhibitor 4.6875 uM) | CPM ([2]; inhibitor 4.6875 uM) | % Uptake Activity ([2]; inhibitor 18.7500 uM) | CPM ([2]; inhibitor 18.7500 uM) | % Uptake Activity ([2]; inhibitor 300.0000 uM) | CPM ([2]; inhibitor 300.0000 uM) | % Uptake Activity [3, 6] | % Uptake Activity [3, 7] | % Uptake Activity [3, 8] | other results
COc1cccc2[nH]c(C(=O)N[C@@H](CC(C)C)C(=O)N[C@@H](C[C@@H]3CCNC3=O)C(=O)COP(=O)(O)O)cc12 [PF-07304814] | 125.678% and 115.377% | 106.608% and 105.754% | 108.317% and 108.894% | 119.121% and 106.734% | 107.814% and 106.156% | 91.558% and 93.518% and 88.141% | 90.43% and 87.63% and 87.56% | 5496 CPM and 5333 CPM and 5329 CPM | 6344 CPM and 6124 CPM and 6271 CPM | 95.24% and 92.22% and 99.27% | 5775 CPM and 5600 CPM and 6009 CPM | 114.18% and 108.98% and 107.36% | 6875 CPM and 6573 CPM and 6479 CPM | 117.49% and 111.56% and 110.48% | 7067 CPM and 6723 CPM and 6660 CPM | 91.64% | 5566 CPM and 5934 CPM and 5704 CPM | 105.911% and 108.085% | 107.678% and 109.994% | 105.525% and 105.627% and 106.866% | % Uptake Activity [3, 10]: 79.098% and 76.965% and 75.828%; % Uptake Activity ([4]; inhibitor 0.0732 uM): 95.69%; CPM ([4]; inhibitor 0.0732 uM): 2351 CPM and 2203 CPM and 2217 CPM; % Uptake Activity ([4]; inhibitor 0.2930 uM): 105.64% and 99.21%; CPM ([4]; inhibitor 0.2930 uM): 2443 CPM and 2297 CPM and 2375 CPM; % Uptake Activity ([4]; inhibitor 1.1719 uM): 97.63%; CPM ([4]; inhibitor 1.1719 uM): 2265 CPM and 2261 CPM and 2365 CPM; % Uptake Activity ([4]; inhibitor 4.6875 uM): 105.94%; CPM ([4]; inhibitor 4.6875 uM): 2450 CPM and 2375 CPM and 2370 CPM; CPM ([4]; inhibitor 18.7500 uM): 2434 CPM and 2427 CPM and 2394 CPM; CPM ([4]; inhibitor 300.0000 uM): 2140 CPM and 2162 CPM and 2113 CPM
COc1cccc2[nH]c(C(=O)N[C@@H](CC(C)C)C(=O)N[C@@H](C[C@@H]3CCNC3=O)C(=O)CO)cc12 [PF-00835231] | 101.859% | 91.784% and 92.362% | 105.553% | 103.166% and 111.935% | 82.513% and 84.925% and 83.116% | 40.653% and 36.131% and 35.653% | 89.07% and 88.76% | 5417 CPM and 5399 CPM and 5694 CPM | 6277 CPM and 5903 CPM and 6132 CPM | 94.53% and 89.93% | 5734 CPM and 5467 CPM and 5478 CPM | 106.21% and 101.51% and 106.50% | 6412 CPM and 6139 CPM and 6429 CPM | 107.64% and 108.48% | 6311 CPM and 6495 CPM and 6544 CPM | 77.29% and 78.84% | 4733 CPM and 5007 CPM and 4823 CPM | 90.372% and 96.587% | 89.681% and 92.220% and 101.584% | 81.820% and 89.092% and 95.795% | % Uptake Activity ([2]; inhibitor 0.2930 uM): 97.44%; % Uptake Activity [3, 5]: 82.815%; % Uptake Activity [3, 9]: 90.311% and 123.136%; % Uptake Activity [3, 10]: 76.092% and 75.036% and 82.714%; % Uptake Activity ([4]; inhibitor 0.0732 uM): 96.00% and 98.99%; CPM ([4]; inhibitor 0.0732 uM): 2224 CPM and 2292 CPM and 2286 CPM; % Uptake Activity ([4]; inhibitor 0.2930 uM): 103.39% and 108.63%; CPM ([4]; inhibitor 0.2930 uM): 2398 CPM and 2392 CPM and 2511 CPM; % Uptake Activity ([4]; inhibitor 1.1719 uM): 96.00% and 102.07%; CPM ([4]; inhibitor 1.1719 uM): 2224 CPM and 2335 CPM and 2362 CPM; % Uptake Activity ([4]; inhibitor 4.6875 uM): 99.35% and 109.07%; CPM ([4]; inhibitor 4.6875 uM): 2417 CPM and 2300 CPM and 2521 CPM; % Uptake Activity ([4]; inhibitor 18.7500 uM): 106.08% and 107.04%; CPM ([4]; inhibitor 18.7500 uM): 2453 CPM and 2432 CPM and 2475 CPM; % Uptake Activity ([4]; inhibitor 300.0000 uM): 92.62% and 96.18% and 91.21%; CPM ([4]; inhibitor 300.0000 uM): 2147 CPM and 2228 CPM and 2115 CPM

Reference: paper PMC8523698, “Preclinical characterization of an intravenous coronavirus 3CL protease inhibitor for the potential treatment of COVID19” (Nature Communications, 2021)
